Measured values from patent US20070213291A1, “Therapeutically useful synthetic oligonucleotides” (priority 1999, published 2007).

Columns and labels:
Type in all cases: cell-based
[1] = system: Jurkat human leukemia T cells; assay: Inhibition of Jurkat human leukemia T cell proliferation (MTT reduction); details: 100 μg/ml sequence, 48 h, 2.5×10^5 cells/ml
Procedure: (§1) Cells were seeded in 6 (1 ml/well), 24 (0.5 ml/well) or 96 (0.1 ml/well) well flat-bottom microplates and were maintained at 37° C. in a 5% CO2 atmosphere. Unless stated otherwise, 2.5×10^5 cells/ml were incubated with 0 μg/ml (control) and 100 μg/ml (treated) of 2 to 45 base sequences containing A, C, G and T for 48 h.
MTT was measured at a wavelength of 570 nm using a multiplate spectrophotometer reader (ELX800, Bio-TEK Instruments Inc., Winooski, Vt.).
Jurkat human leukemia T cells are an atypical multi-drug resistant human suspension tumor cell model.

[2] = system: OVCAR-3 human ovarian cancer cells; assay: Inhibition of OVCAR-3 cell proliferation (MTT); details: 100 μg/ml, 48 h, 5×10^5 cells/ml
Procedure: as §1
(§2) Cell proliferation was measured using dimethylthiazol-diphenyl-tetrazolium (MTT) reduction (Mosman et al. J. Immunol. Methods 65:55, 1983). MTT was measured at a wavelength of 570 nm using a multiplate spectrophotometer reader (ELX800, Bio-TEK Instruments Inc., Winooski, Vt.).
OVCAR-3 ovarian cancer cells are a p53 mutated, p21/waf-1/Cip deleted, metastatic human solid tumor model. OVCAR-3 cells (5×10^5 cells/ml) were incubated with 2, 6 and 18 base GT sequences and with a 6 base AGT sequence (Table 11).

[3] = system: SK-OV-3 human ovarian cancer cells; assay: Inhibition of SK-OV-3 cell proliferation (MTT); details: 100 μg/ml, 48 h, 5×10^5 cells/ml
Procedure: as §1, §2
SK-OV-3 ovarian cancer cells are a p53 mutated, p21/waf-1/Cip deleted, p15^ink4B deleted, p16^Ink4 deleted, metastatichuman solid tumor model. SK-OV-3 cells (5×10^5 cells/ml) were incubated with 2, 6 and 18 base GT sequences (Table 12).

[4] = system: Jurkat human leukemia T cells; assay: Cell cycle stage in Jurkat cells (propidium iodide flow cytometry); details: 24 h, 100 μg/ml
Procedure: (§3) Cell cycle stage was determined using a CYCLETES™ PLUS DNA commercial kit (Becton Dickinson). Briefly, nuclei from cells were obtained by dissolving the cell membrane in a nonionic detergent, eliminating the cell cytoskeleton and nuclear proteins with trypsin, digesting the cellular RNA with RNase and stabilizing the nuclear chromatin with spermine. Propidium iodide was added to the cell nuclei and their fluorescence was analyzed in a flow cytometer equipped with electronic doublet discrimination capability (FACSCalibur, Becton Dickinson, San Jose, Calif.). Accumulation of cells in G0/G1, early S (SE), mid S (SM), late S (SL) or G2/M phases of the cell cycle was analyzed using MODFIT LT software (Verity Software House Inc., Topsham, Mass.).
(§4) Exponentially growing Jurkat human leukemia T cells (Table 28) and MCF-7 human breast cancer cells (5×10^5 cells/ml) (Table 29) were incubated for 24 h with 2, 6, 15, 18, 27 and 45 base sequences containing A, C, G and T. The cells were collected and centrifuged and cell cycle stage was determined.
Jurkat human cell leukemia T cells (1×10^6 cells/ml) were incubated for 24 h with 6 base GT SEQ ID NO:25, conplementary 6 base AC SEQ ID NO:79 and 6 base GT SEQ ID NO:25+6 base AC SEQ ID NO:79. GT SEQ ID NO:25 and AC SEQ ID NO:79 were hybridized by mixing the oligonucleotides (1:1) and heating for 10 minutes at 65° C. As controls, GT SEQ ID NO:25 and AC SEQ ID NO:79 were heated for 10 minutes at 65° C. (Table 30).

[5] = system: MCF-7 human breast cancer cells; assay: Cell cycle stage in MCF-7 cells (propidium iodide flow cytometry); details: MCF-7, 5×10^5 cells/ml, 24 h
Procedure: as §3, §4

[6] = system: THP-1 human acute monocytic leukemia cells; assay: Cytokine production by THP-1 cells (ELISA); details: THP-1, 1×10^6 cells, 100 μg/ml, 48 h
Procedure: Unless stated otherwise, 1×10^6 cells were incubated with 100 μg/ml of each of the sequences tested for 48 h at 37° C. in 5% CO2. Production of cytokines IL-6, IL-10, IL-12, IL-1beta and TNF-alpha was determined in pg/ml in 100 μl of culture supernatant using the appropriate commercial ELISA (BioSource, Camarillo Calif.). The IL-12 ELISA measures both IL-12 p70 complex and free p40 subunit. Results are expressed as the “fold” (×) increase in cytokine production by treated cells compared to control cells.
THP-1 human acute monocytic leukemia cells were incubated with 2, 3, 6, 9, 12, 14, 15 and 18 base GT sequences and production of the cyotkine IL-6 was determined (Table 35).
THP-1 human acute monocytic leukemia cells were incubated with 6 base GT, AG, CG, GG, AGT and CGT sequences and production of the cytokines IL-12 and IL-6 was determined (Table 36).
THP-1 human acute monocytic leukemia cells were incubated with 6 base GT sequences, having either an oxygen (phosphodiester) or a sulfur (phosphorothioate) as the nonbridging atom on the phosphate groups and production of the cytokine IL-12 was determined (Table 39).
THP-1 human acute monocytic leukemia cells were incubated with 6 base GT SEQ ID NO:25, having either an oxygen (phosphodiester) or a sulfur (phosphorothioate) as the nonbridging atom on the phosphate groups and production of the cytokine IL-12 was determined (Table 40).

| Substance | % INHIBITION of Jurkat human leukemia T cell proliferation [1] [%] | % INHIBITION of OVCAR-3 human ovarian cancer cell proliferation [2] [%] | % INHIBITION of SK-OV-3 human ovarian cancer cell proliferation [3] [%] | % of cells in phase: G0/G1 [4] [%] | % of cells in phase: G2/M [4] [%] | % of cells in phase: SE [4] [%] | % of cells in phase: SL [4] [%] | % of cells in phase: SM [4] [%] | Arrest (cell cycle) [4] | % cells in phase: G0/G1 [5] [%] | % cells in phase: G2/M [5] [%] | % cells in phase: SE [5] [%] | % cells in phase: SL [5] [%] | % cells in phase: SM [5] [%] | Arrest (cell cycle) [5] | ↑ IL-6 (fold increase treated vs control cells) [6] [x] |
| --- | --- | --- | --- | --- | --- | --- | --- | --- | --- | --- | --- | --- | --- | --- | --- | --- |
| SEQ ID NO:50 (DNA GT; chemistry not fully specified) | 38 | – | – | – | – | – | – | – | – | – | – | – | – | – | – | – |
| SEQ ID NO:51 (DNA TG; chemistry not fully specified) | 50 | 23 | 18 | 23.1 | 0.0 | 52.3 | 9.8 | 14.8 | End SE | 17.2 | 17.9 | 36.4 | 14.1 | 13.4 | End SE | 2.9 |
